# CycPeptMPDB entries from one study

PAMPA measures passive passage through an artificial lipid membrane. Caco-2: transport across a human colon carcinoma cell monolayer. Values are log10 P with P in cm/s, so -5 is more permeable than -7. "n/a" marks a cell with nothing listed here. A structure that stands twice has two entries in the source.

SMILES,PAMPA (log10 cm/s),Caco-2 (log10 cm/s)
CC(C)C[C@@H]1NC(=O)[C@@H](CC(C)C)NC(=O)[C@H](CC(C)C)NC(=O)[C@@H](CCC(=O)N2CCCC2)NC(=O)[C@H]2CCCN2C(=O)[C@H](CC(C)C)NC1=O,-5.89,n/a
CC(C)C[C@@H]1NC(=O)[C@@H](CC(C)C)NC(=O)[C@H](CC(C)C)NC(=O)[C@@H](CCC(=O)N(C)C)NC(=O)[C@H]2CCCN2C(=O)[C@H](CC(C)C)NC1=O,-6.18,n/a
CC(C)C[C@@H]1NC(=O)[C@@H](CC(C)C)NC(=O)[C@@H](CCC(=O)N2CCCC2)NC(=O)[C@@H](CC(C)C)NC(=O)[C@@H](CC(C)C)NC(=O)[C@H]2CCCN2C1=O,-5.96,n/a
CC(C)C[C@@H]1NC(=O)[C@H](Cc2ccc3ccccc3c2)NC(=O)[C@@H](CC(C)C)NC(=O)[C@H](CCC(=O)N2CCCC2)NC(=O)[C@@H](C)NC(=O)[C@H]2CCCN2C1=O,-6.29,n/a
CC(C)C[C@@H]1NC(=O)[C@@H](CC(C)C)NC(=O)[C@H](CC(C)C)NC(=O)[C@@H](CCC(=O)N2CCCC2)NC(=O)[C@H]2CCCN2C(=O)[C@H](CC(C)C)NC1=O,-5.84,-6.41
CC(C)C[C@@H]1NC(=O)[C@@H](CC(C)C)NC(=O)[C@@H](CCC(=O)N2CCCC2)NC(=O)[C@@H](CC(C)C)NC(=O)[C@H]2CCCN2C(=O)[C@H](CC(C)C)NC1=O,-6.19,n/a
CC(C)C[C@@H]1NC(=O)[C@H](Cc2ccc3ccccc3c2)NC(=O)[C@@H](CC(C)C)NC(=O)[C@H](C)NC(=O)[C@@H](CCC(=O)N2CCCC2)NC(=O)[C@H]2CCCN2C1=O,-5.52,n/a
CC(C)C[C@@H]1NC(=O)[C@@H](CC(C)C)NC(=O)[C@H](CCC(=O)N2CCCC2)NC(=O)[C@@H](C)NC(=O)[C@H]2CCCN2C(=O)[C@H](CC(C)C)NC1=O,-7.50,n/a
CC(C)C[C@@H]1NC(=O)[C@@H](CC(C)C)NC(=O)[C@@H](CC(C)C)NC(=O)[C@@H](CC(C)C)NC(=O)[C@@H](CCC(=O)N2CCCC2)NC(=O)[C@H]2CCCN2C1=O,-6.26,n/a
CC(C)C[C@@H]1NC(=O)[C@H](CCc2ccccc2)NC(=O)[C@@H](CC(C)C)NC(=O)[C@H](C)NC(=O)[C@@H](CCC(=O)N2CCCC2)NC(=O)[C@H]2CCCN2C1=O,-5.90,n/a
CC(C)C[C@@H]1NC(=O)[C@@H](CC(C)C)NC(=O)[C@H](CCC(=O)N2CCCC2)NC(=O)[C@@H](CC(C)C)NC(=O)[C@H]2CCCN2C(=O)[C@H](CC(C)C)NC1=O,-6.70,n/a
CC[C@@H]1NC(=O)[C@@H](CC(C)C)NC(=O)[C@H](CCC(=O)N2CCCC2)NC(=O)[C@@H](C)NC(=O)[C@H]2CCCN2C(=O)[C@H](CC(C)C)NC1=O,-8.39,n/a
CC(C)C[C@@H]1NC(=O)[C@@H](CC(C)C)NC(=O)[C@H](CCC(=O)N2CCCC2)NC(=O)[C@@H](CC(C)C)NC(=O)[C@H]2CCCN2C(=O)[C@H](CC(C)C)NC1=O,n/a,-7.15
CC(C)C[C@@H]1NC(=O)[C@H](CCc2ccccc2)NC(=O)[C@@H](CC(C)C)NC(=O)[C@H](CCC(=O)N2CCCC2)NC(=O)[C@@H](CC2CCCCC2)NC(=O)[C@H]2CCCN2C1=O,-5.40,n/a
CC(C)C[C@@H]1NC(=O)[C@@H](CC(C)C)NC(=O)[C@H](C)NC(=O)[C@@H](CCC(=O)N2CCCC2)NC(=O)[C@H]2CCCN2C(=O)[C@H](CC(C)C)NC1=O,-6.68,n/a
CC(C)C[C@@H]1NC(=O)[C@@H](CCC(=O)N2CCCC2)NC(=O)[C@H]2CCCN2C(=O)[C@H](CC(C)C)NC(=O)[C@H](Cc2ccc3ccccc3c2)NC(=O)[C@@H](CC(C)C)NC1=O,-5.09,n/a
CC(C)C[C@@H]1NC(=O)[C@H](Cc2ccc3ccccc3c2)NC(=O)[C@@H](CC(C)C)NC(=O)[C@H](CC2CCCCC2)NC(=O)[C@@H](CCC(=O)N2CCCC2)NC(=O)[C@H]2CCCN2C1=O,-5.28,n/a
CC(C)C[C@@H]1NC(=O)[C@@H](CC(C)C)NC(=O)[C@H](CCC(=O)N2CCCC2)NC(=O)[C@@H](CC2CCCCC2)NC(=O)[C@H]2CCCN2C(=O)[C@H](CC(C)C)NC1=O,-5.66,n/a
CC(C)C[C@H]1NC(=O)[C@H]2CCCN2C(=O)[C@H](CCC(=O)N2CCCC2)NC(=O)[C@@H](CC(C)C)NC(=O)[C@@H](CC(C)C)NC(=O)[C@@H](CC(C)C)NC1=O,-5.89,n/a
CC(C)C[C@@H]1NC(=O)[C@H](Cc2ccc3ccccc3c2)NC(=O)[C@@H](CC(C)C)NC(=O)[C@H](CCC(=O)N2CCCC2)NC(=O)[C@@H](CC2CCCCC2)NC(=O)[C@H]2CCCN2C1=O,-5.43,n/a
CC[C@@H]1NC(=O)[C@@H](CC(C)C)NC(=O)[C@H](C)NC(=O)[C@@H](CCC(=O)N2CCCC2)NC(=O)[C@H]2CCCN2C(=O)[C@H](CC(C)C)NC1=O,-7.53,n/a
CC(C)C[C@@H]1NC(=O)[C@@H](CCC(=O)N2CCCC2)NC(=O)[C@H](CC(C)C)NC(=O)[C@@H](CC(C)C)NC(=O)[C@H]2CCCN2C(=O)[C@H](CC(C)C)NC1=O,-6.86,-6.77
CC[C@@H]1NC(=O)[C@@H](CC(C)C)NC(=O)[C@H](CCC(=O)N2CCCC2)NC(=O)[C@@H](CC(C)C)NC(=O)[C@H]2CCCN2C(=O)[C@H](CC(C)C)NC1=O,-7.46,n/a
CC(C)C[C@@H]1NC(=O)[C@@H](CCC(=O)N2CCCC2)NC(=O)[C@H]2CCCN2C(=O)[C@H](CC(C)C)NC(=O)[C@H](c2ccccc2)NC(=O)[C@@H](CC(C)C)NC1=O,-5.23,n/a

The last 3 entries again:

SMILES,PAMPA (log10 cm/s),Caco-2 (log10 cm/s)
CC(C)C[C@@H]1NC(=O)[C@@H](CCC(=O)N2CCCC2)NC(=O)[C@H](CC(C)C)NC(=O)[C@@H](CC(C)C)NC(=O)[C@H]2CCCN2C(=O)[C@H](CC(C)C)NC1=O,-6.86,-6.77
CC[C@@H]1NC(=O)[C@@H](CC(C)C)NC(=O)[C@H](CCC(=O)N2CCCC2)NC(=O)[C@@H](CC(C)C)NC(=O)[C@H]2CCCN2C(=O)[C@H](CC(C)C)NC1=O,-7.46,n/a
CC(C)C[C@@H]1NC(=O)[C@@H](CCC(=O)N2CCCC2)NC(=O)[C@H]2CCCN2C(=O)[C@H](CC(C)C)NC(=O)[C@H](c2ccccc2)NC(=O)[C@@H](CC(C)C)NC1=O,-5.23,n/a

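The data file gives no further conditions (lipid, pH, time, direction or concentration), and values from different papers need not be comparable. Other peptides of the study may be missing here. Entries at the database's floor value (log10 P of -10) are not listed.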

Values of Taechalertpaisarn et al. 2022, doi:10.1021/acs.jmedchem.2c00010, as listed in CycPeptMPDB.